Experimental findings from patent publication US8410137B2, “Thiophene-2-carboxamide derivatives, preparation thereof and therapeutic use thereof” (Sanofi, priority 2008, dated 2013) are described below.

Sequences of proteins named here, by UniProt entry; tags and fusion partners are left off.
UniProt P47746, whole entry: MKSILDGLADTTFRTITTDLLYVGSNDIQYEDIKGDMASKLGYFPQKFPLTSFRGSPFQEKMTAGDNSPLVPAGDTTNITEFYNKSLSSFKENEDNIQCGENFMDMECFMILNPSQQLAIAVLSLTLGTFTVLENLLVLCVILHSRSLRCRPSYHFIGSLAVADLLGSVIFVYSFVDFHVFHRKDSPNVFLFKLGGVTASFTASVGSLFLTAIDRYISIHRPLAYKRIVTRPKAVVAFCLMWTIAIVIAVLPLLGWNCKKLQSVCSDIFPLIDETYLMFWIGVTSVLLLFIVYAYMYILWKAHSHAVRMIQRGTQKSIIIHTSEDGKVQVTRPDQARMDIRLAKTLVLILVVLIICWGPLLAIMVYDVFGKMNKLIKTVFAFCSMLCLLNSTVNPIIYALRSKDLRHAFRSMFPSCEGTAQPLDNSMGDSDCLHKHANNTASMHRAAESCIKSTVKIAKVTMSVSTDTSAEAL

This assay has as its target T1, CB1 receptors present in the brain (Mus musculus, UniProt P47746).
T1 construct: from tissue; host or cells: whole animal (brain CB1 receptors, in vivo)
Put plainly: Measurement (3): blocking of the hypothermic effect induced by CP55940. The assay is classed as in vivo.

As for `Cc1c(C(=O)NN2CCCCC2)nn(-c2ccc(Cl)cc2Cl)c1-c1ccc(Cl)cc1` [rimonabant, reference compound], the “effective dose 50 (DE50), reversion of the hypothermic effect of CP55940” value is recorded as “(DE50) = 0.3 mg/kg]”. Further, the “% of reversion of the hypothermic effect of CP55940 with regard to the CB1 receptors present in the brain” value (iv at 10 mg/kg) is given as 100%.
